Publication PMC6061170, “Synthesis and biological investigations of 3β-aminotropane arylamide derivatives with atypical antipsychotic profile” (Medicinal Chemistry Research, 2018)

By UniProt entry, the sequences of proteins in these tests, tags left out.
UniProt P19327, whole entry: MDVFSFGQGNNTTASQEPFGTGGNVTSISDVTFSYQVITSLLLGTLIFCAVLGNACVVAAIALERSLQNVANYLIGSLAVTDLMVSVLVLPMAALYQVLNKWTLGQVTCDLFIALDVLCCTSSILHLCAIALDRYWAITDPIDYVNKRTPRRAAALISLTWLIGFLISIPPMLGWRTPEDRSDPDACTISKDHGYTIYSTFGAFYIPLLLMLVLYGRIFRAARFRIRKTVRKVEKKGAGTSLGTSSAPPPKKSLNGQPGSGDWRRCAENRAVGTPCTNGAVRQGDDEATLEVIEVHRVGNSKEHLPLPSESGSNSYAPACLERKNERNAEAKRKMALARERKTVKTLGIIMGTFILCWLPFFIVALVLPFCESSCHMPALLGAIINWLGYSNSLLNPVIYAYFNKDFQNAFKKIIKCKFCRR

Molecular target: T1, serotonin 5-HT1A receptors (Rattus norvegicus, UniProt P19327)
T1 construct: from tissue; host or cells: rat brain tissues
Assay: Radioligand binding assay, 5-HT1A receptors
Procedure: All compounds were tested for their affinities for 5-HT1A, 5-HT2A, and D2 receptors according to previously described procedures (Stefanowicz et al. [2016]).
Competition binding studies were performed according to a previously described procedure in rat brain tissues (Stefanowicz et al. [2016]).

**Q.** Which IC50 does the source give for `NCCc1c[nH]c2ccc(O)cc12` [Serotonin, reference compound] here?
**A.** 3.4 ± 0.2 nM

**Q.** What about the Ki of the same molecule?
**A.** 1.2 ± 0.1 nM
